Assay [1] addresses CDK1-NanoLuc fusion with CCNB1 in 293T or 293 cells (Homo sapiens, UniProt P06493). Kind of assay: NanoBRET Target Engagement (TE) Intracellular Kinase Assay, CDK1/CCNB1. The conditions noted are these: read-out: NanoBRET-CDK1/B1 IC50, 2-hour incubation. For orientation: BRET reads energy transfer from a luciferase to a nearby fluorophore.
The target of assay [2] is CDK2-NanoLuc fusion with CCNE1 in 293T or 293 cells (Homo sapiens, UniProt P24941). The experiment in a line: NanoBRET Target Engagement (TE) Intracellular Kinase Assay, CDK2/CCNE1. As to conditions: read-out: NanoBRET-CDK2/E1 IC50, 2-hour incubation.
Assay [3] deals with CDK4-NanoLuc fusion with CCND1 in 293T or 293 cells (Homo sapiens, UniProt P11802). Kind of assay: NanoBRET Target Engagement (TE) Intracellular Kinase Assay, CDK4/CCND1. The conditions noted are these: read-out: NanoBRET-CDK4/D1 IC50, 2-hour incubation.
Assay [4] deals with Phospho-Rb Ser807/811 in OVCAR3 cells. The experiment in a line: OVCAR3 Phospho-Rb Ser807/811 HTRF assay. As to conditions: read-out: pRb-OVCAR3 IC50, 1 hour incubation.

The chains behind the UniProt entries cited, without tags or fusion partners.
UniProt P06493, whole entry: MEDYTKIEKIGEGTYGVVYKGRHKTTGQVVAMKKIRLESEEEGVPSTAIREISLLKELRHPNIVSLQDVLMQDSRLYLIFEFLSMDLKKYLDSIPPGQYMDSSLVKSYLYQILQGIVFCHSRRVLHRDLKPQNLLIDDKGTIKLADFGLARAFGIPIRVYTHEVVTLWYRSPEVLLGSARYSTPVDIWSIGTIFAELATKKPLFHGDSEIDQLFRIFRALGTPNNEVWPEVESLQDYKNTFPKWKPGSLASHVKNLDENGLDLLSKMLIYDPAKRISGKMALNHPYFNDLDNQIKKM
UniProt P11802, whole entry: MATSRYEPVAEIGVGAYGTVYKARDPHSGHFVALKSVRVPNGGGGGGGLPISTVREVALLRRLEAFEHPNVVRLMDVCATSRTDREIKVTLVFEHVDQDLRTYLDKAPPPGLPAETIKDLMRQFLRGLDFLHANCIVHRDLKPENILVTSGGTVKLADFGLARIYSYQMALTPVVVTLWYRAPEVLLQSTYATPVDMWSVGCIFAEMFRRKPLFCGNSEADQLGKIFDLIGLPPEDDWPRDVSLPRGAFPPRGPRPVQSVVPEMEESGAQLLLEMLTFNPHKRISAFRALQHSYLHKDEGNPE
UniProt P14635, whole entry partner: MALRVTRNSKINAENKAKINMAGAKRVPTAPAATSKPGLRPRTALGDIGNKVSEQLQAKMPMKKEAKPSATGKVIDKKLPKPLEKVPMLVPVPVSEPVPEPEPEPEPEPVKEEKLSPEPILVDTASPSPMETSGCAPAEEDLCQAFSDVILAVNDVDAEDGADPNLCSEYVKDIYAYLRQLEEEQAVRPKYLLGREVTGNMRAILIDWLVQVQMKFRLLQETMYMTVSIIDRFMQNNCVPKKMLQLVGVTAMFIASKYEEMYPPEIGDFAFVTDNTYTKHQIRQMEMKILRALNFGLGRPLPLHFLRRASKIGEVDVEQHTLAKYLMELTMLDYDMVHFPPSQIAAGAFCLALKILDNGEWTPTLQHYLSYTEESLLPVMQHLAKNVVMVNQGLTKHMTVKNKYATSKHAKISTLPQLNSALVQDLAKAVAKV
UniProt P24385, whole entry partner: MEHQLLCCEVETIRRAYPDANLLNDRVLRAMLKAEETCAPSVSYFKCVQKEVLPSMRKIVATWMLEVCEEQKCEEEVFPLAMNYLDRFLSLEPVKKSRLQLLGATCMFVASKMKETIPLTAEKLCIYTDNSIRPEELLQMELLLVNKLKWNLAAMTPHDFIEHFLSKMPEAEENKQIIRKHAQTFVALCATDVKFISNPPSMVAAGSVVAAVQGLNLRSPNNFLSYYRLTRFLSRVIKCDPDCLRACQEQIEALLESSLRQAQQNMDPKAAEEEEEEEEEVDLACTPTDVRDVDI

The values that follow come from patent US20250289789A1, “REVERSIBLE LYSINE COVALENT MODIFIERS OF CDK2 AND USES THEREOF” (Terremoto Biosciences, Inc., priority 2023, published 2025).

Structures are written as SMILES. Bounds are passed on as bounds.

On to `Cc1cc(O)c(C=O)c(CCC(=O)Nc2cc([C@H]3CC[C@@H](OC(=O)NC(C)C)C3)[nH]n2)c1`, for which the IC50 in assay [1] was 269 nM; in assay [2], 5.38 nM; in assay [3], > 10 µM; in assay [4] it was 556 nM.
Consider `CC(C)NC(=O)O[C@@H]1CC[C@H](c2cc(NC(=O)c3cc(-c4cccc(O)c4C=O)ns3)n[nH]2)C1`, for which the IC50 is 64.3 nM in assay [1], 9.38 nM in assay [2], 7.09 µM in assay [3] and 1190 nM in assay [4].
